Test results: ChEMBL document CHEMBL5058646 (2022)

Assays:
Conditions in all cases: SUD4
[1] = molecular target: T1, Zinc finger and BTB domain-containing protein 21 (Homo sapiens) (UniProt Q9ULJ3)
T1 sequence (whole entry): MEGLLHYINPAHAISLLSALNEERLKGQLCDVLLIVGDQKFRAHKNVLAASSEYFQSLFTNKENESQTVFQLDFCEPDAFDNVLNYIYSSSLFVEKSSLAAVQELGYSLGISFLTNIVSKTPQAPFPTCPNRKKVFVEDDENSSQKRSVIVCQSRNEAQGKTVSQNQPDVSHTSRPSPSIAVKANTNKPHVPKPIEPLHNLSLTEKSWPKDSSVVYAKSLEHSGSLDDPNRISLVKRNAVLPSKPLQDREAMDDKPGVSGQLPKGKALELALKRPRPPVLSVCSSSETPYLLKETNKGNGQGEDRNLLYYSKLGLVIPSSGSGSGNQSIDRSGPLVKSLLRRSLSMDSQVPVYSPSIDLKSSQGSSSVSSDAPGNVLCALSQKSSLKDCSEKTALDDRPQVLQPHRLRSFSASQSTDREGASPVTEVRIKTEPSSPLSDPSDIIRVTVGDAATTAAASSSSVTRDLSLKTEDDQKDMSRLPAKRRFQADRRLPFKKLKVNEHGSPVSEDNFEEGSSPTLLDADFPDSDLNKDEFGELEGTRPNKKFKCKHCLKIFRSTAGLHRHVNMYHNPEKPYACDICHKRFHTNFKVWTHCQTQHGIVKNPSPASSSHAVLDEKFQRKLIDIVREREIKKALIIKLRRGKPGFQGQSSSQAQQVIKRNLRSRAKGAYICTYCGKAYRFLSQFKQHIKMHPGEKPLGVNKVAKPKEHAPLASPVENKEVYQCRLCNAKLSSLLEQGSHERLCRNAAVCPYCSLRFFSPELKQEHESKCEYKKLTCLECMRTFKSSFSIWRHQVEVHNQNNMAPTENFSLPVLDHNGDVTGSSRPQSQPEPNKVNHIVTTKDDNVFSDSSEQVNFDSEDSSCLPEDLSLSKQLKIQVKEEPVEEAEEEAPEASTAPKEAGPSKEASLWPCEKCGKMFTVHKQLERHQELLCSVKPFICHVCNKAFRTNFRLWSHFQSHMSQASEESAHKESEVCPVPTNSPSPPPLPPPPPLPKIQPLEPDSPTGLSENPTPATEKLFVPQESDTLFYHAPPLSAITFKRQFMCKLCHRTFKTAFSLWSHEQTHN

[2] = molecular target: T2, Zinc finger and BTB domain-containing protein 40 (Homo sapiens) (UniProt Q9NUA8)
T2 sequence (whole entry): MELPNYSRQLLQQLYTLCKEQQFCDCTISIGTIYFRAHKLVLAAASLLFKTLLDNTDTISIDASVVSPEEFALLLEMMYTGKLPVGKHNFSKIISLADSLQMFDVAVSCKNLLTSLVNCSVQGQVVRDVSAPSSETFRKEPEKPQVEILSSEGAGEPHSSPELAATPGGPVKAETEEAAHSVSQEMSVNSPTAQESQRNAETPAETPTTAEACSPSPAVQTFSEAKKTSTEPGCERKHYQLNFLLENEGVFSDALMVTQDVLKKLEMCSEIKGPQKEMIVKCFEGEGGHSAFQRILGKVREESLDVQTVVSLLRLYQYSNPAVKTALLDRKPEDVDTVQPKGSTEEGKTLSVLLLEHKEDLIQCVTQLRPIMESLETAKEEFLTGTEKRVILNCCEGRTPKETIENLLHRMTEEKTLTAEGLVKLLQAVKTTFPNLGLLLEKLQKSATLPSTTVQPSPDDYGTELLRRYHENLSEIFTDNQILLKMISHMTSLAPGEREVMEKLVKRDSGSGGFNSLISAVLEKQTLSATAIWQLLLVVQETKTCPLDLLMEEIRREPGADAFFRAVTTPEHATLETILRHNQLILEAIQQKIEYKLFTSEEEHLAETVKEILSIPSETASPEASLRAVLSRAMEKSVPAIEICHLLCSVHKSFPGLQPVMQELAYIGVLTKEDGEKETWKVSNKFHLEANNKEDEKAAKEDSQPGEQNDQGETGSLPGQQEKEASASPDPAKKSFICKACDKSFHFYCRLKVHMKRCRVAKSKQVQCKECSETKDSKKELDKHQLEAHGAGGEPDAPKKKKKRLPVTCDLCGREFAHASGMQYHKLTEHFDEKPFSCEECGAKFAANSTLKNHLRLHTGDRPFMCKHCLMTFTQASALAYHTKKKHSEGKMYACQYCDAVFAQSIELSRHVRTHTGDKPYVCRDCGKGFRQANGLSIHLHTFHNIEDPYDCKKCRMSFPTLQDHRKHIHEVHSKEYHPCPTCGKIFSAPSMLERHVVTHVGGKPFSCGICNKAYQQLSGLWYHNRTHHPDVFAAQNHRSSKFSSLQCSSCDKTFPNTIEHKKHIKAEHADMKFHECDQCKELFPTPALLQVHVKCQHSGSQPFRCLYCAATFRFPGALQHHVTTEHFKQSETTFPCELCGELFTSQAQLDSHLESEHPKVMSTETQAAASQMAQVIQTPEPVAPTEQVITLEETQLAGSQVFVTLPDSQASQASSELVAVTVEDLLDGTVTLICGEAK

[3] = molecular target: T3, Zinc finger and BTB domain-containing protein 1 (Homo sapiens) (UniProt Q9Y2K1)
T3 sequence (whole entry): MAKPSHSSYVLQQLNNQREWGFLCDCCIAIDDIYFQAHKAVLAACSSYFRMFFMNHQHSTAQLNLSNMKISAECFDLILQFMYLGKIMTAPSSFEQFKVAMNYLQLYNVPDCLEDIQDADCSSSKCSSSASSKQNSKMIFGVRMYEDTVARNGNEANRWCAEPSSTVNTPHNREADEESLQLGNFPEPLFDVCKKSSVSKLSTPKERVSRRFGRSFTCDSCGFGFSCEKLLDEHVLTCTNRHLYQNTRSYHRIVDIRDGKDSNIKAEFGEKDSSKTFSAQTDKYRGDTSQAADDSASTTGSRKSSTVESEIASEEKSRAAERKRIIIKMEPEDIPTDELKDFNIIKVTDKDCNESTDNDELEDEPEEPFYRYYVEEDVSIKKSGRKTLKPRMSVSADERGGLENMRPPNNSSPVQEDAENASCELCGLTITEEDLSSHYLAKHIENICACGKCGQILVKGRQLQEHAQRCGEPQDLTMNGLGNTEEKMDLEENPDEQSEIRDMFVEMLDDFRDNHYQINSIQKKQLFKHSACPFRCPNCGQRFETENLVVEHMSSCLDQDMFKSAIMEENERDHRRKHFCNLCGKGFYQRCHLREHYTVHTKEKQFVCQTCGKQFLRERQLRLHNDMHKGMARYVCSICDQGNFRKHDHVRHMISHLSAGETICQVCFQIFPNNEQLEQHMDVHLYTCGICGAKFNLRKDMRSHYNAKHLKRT

C[C@@H]1CN(c2ncc(Cl)c(Nc3ccc4c(c3)n(CCC(C)(C)O)c(=O)n4C)n2)C[C@H](C)C1(F)F
Normalized abundances for DMSO [1]: 433 | Normalized abundances for compound [1]: 436 | Normalized abundances for DMSO [2]: 1220 | Normalized abundances for compound [2]: 1290 | Normalized abundances for DMSO [3]: 3560 | Normalized abundances for compound [3]: 3500
